Patent US10295551B2, “Development and use of fluorescent probes of unbound bilirubin” (Alan Marc Kleinfeld, priority 2011, dated 2019)

Protein sequences, listed by entry. Tags and fused reporters are not part of them. Chains listed by the source or under a name are the forms on record and can include a tag or linker. Residues count along the entry.
UniProt P02693, 3-129 with tags or gaps with the stated changes limits assumed: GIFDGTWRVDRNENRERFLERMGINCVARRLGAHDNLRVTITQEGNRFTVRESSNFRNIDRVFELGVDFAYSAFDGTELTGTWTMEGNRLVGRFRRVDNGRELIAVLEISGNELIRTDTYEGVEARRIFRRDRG

Target: BL22P1B11 (SEQ ID NO: 35) (Rattus norvegicus, UniProt P02693, A74F/K101R/K126R/K17R/K21R/K28A/K30R/K38R/K47R/K51R/K89R/K8R/K93R/K95R/L39V/L73A/M19L/Q116R/R107L/V26C/V61R/Y118D/Y15R)
Assay: Kds for binding BL22P1B11 (bilirubin and fatty acids)
Conditions: ligand binding to acrylodan labeled BL22P1B11

CCCCCCCC/C=C\CCCCCCCC(=O)O [Oleate 18:1 (n-9), Oleate]
Kd: 2.51 µM
